Assay outcomes from PubChem.
SR-BI uptake up – activators of SR-BI mediated HDL lipid uptake; 320,000 tested, 0.096% active; activation, % at 12.5 µM; AID 504775; CHO ldlA[mSR-BI] cells, DiI-HDL uptake fluorescence, 3 h; 100 = double the neutral-control signal;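 active means mean replicate activation of at least 60% and every replicate at or above 60%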;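 further: 0% = median plate neutral-control signal and 100% = twice that signal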
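Test system: SR-BI-overexpressing, LDLR-lacking CHO cells; Medium: Ham's F12 with 0.5% BSA, HEPES 25 mM, pH 7.4; Schedule: 3 h, 37 °C; Technique: bottom-read fluorescence, 550/595 nm.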
Yeast UUG start-1 – yeast start codon fidelity modulation; AID 602363; activity score, % at 18.7 µM; S. cerevisiae UUG-firefly luciferase reporter, luminescence/redox ratio; 0.13% of 350,000 active;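 active means replicate mean at a twofold rise or more, about +100% in these data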;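 further: firefly luciferase made from a UUG start codon reports start codon fidelity; reporter light over untreated wells divided by growth signal over untreated wells; some hits fall short of that in this replicate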
GSIS activator – GLuc luminescence reporter in INS-1E cells, primary screen for activators of glucose-dependent secretion of insulin; INS-1E GLuc reporter insulin secretion, 2-3 h; activation, % at 16.6 µM; 370,000 tested, 0.61% active;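 active means lowest replicate activation of at least 40%, so every replicate reaches that level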;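 further: 0% = median of neutral control wells and 100% = median of IBMX positive control wells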
SR-BI DiI inh – blocks mouse SR-BI lipid uptake from DiI-HDL | Q61009 | ldlA[mSR-BI] CHO cells, DiI-HDL uptake fluorescence, 3 h | inhibition, % at 12.5 µM | 320,000 tested, 0.96% active | AID 488896;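 active means mean replicate inhibition of at least 70% and a set share of replicates each scoring 70 or more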;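 further: 0% = median of neutral control wells and 100% = median of positive control wells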
Yeast UUG start-2 – yeast start codon fidelity modulation. 540 tested, under 10 active. shares compounds with Yeast UUG start-1. activation, % at 38 µM. S. cerevisiae UUG-start firefly luciferase, luminescence, 4 h; 100% means double the DMSO signal;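 active means signal increase whose fitted curve reaches an absolute level of 40 at a concentration under 10 µM; inactive means activity opposite to the expected increase, or the rest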
An asterisk follows results filed as active; i = inactive; nt = not tested or not shown. A selection: hits, their analogues and other compounds. The true share with any hit is near 1.3%.

SR-BI uptake up | Yeast UUG start-1 | GSIS activator | SR-BI DiI inh | Yeast UUG start-2 | Compound
nt | nt | -1 | nt | nt | CC(C)NC(=O)N(C)C[C@H]1OCCCC[C@H](C)Oc2ccc(NC(=O)c3ccccc3)cc2C(=O)N([C@H](C)CO)C[C@H]1C
nt | 109* | nt | nt | 4 | COc1ccc(Cl)cc1NC(=O)CSc1nc2[nH]ncc2c(=O)[nH]1
nt | -1 | 5 | nt | nt | CCC(=O)N(C)C[C@H]1Oc2ncc(-c3ccccc3C)cc2C(=O)N([C@H](C)CO)C[C@@H]1C
9 | -22 | 23 | -9 | nt | O=C(CNC(=O)c1ccccc1)OCCCOC(=O)CNC(=O)c1ccccc1
20 | 103* | 14 | -20 | 10 | CCOC(=O)CNC(=O)c1ccccc1
nt | 2 | -17 | nt | nt | C[C@@H]1CCCCO[C@H](CN(C)S(=O)(=O)c2ccccc2)[C@@H](C)CN([C@@H](C)CO)C(=O)c2cc(NC(=O)NC3CCCCC3)ccc2O1
nt | 17 | 5 | nt | nt | O=C(Cc1ccccc1)N1C[C@@H]2[C@H](c3ccccc31)[C@H](CO)N2C(=O)c1ccc(F)cc1
nt | active | 9 | nt | i | O=C(c1ccccc1F)N1C[C@@H]2[C@H](c3ccccc31)[C@@H](CO)N2C(=O)C1CCCC1
nt | 103* | 7 | nt | i | O=C(c1cccnc1)N1C[C@@H]2[C@H](c3ccccc31)[C@H](CO)N2C(=O)C1CCCC1
nt | 109* | 9 | nt | i | O=C(Cc1ccccc1)N1C[C@H]2[C@@H](c3ccccc31)[C@@H](CO)N2C(=O)c1ccc(F)cc1
nt | -4 | -5 | nt | nt | O=S(=O)(N[C@@H]1CC[C@@H](CCn2cc(C3(O)CCCC3)nn2)O[C@H]1CO)c1ccc(Cl)cc1
nt | 7 | 4 | nt | nt | C[C@H]1CN([C@@H](C)CO)C(=O)c2cc(C#CCN(C)C)cnc2O[C@H]1CN(C)C
-40 | 346* | 23 | 40 | -5 | COc1ccc(/C=N/NC(=O)c2ccc3nc[nH]c3c2)c(OC)c1OC
7 | -6 | 1 | -7 | nt | Cn1c(=O)[nH]c(=O)c2c1nc(Br)n2C/C=N/Nc1ccccc1
-18 | 136* | 8 | 18 | 0 | Cn1c(=O)[nH]c(=O)c2c1nc(Br)n2C/C=N/NC(=O)c1ccccc1
17 | nt | 8 | -17 | nt | CCOC(=O)Cn1nc(C)n(-c2ccc(Cl)cc2)c1=O
17 | 223* | -7 | -17 | -3 | CCOC(=O)Cn1nc(C)n(-c2cccc(Cl)c2)c1=O
nt | nt | -22 | nt | nt | CN1C(=O)c2cc(NC(=O)c3ccc(F)c(F)c3)ccc2OC[C@@H]2O[C@@H](CC(=O)N[C@@H]3CCN(Cc4ccccc4)C3)CC[C@@H]21
-68 | -13 | nt | 68 | 5 | Cc1cccc(N2CCN(C(=O)Cn3nc(Cc4ccncc4)c4ccccc4c3=O)CC2)c1C
3 | -7 | 9 | -3 | nt | O=C(Cn1nc(Cc2ccncc2)c2ccccc2c1=O)N1CCN(C(=O)c2ccco2)CC1
4 | -47 | nt | -4 | nt | Cn1c(C(=O)O)c(CC(=O)Nc2ccc3c(c2)OCCO3)c2ccccc21
nt | nt | nt | nt | i | Cn1nc(CC(=O)Nc2cccc(O)c2)c2ccccc2c1=O
1 | nt | -14 | -1 | nt | Cc1ccc(NC(=O)Cn2nc(C)c3ccccc3c2=O)cc1F
7 | nt | nt | -7 | -2 | Cn1nc(CC(=O)Nc2ccc3c(c2)OCCO3)c2ccccc2c1=O
29 | 1 | nt | -29 | 16 | Cc1ccc(NC(=O)Cc2nn(C)c(=O)c3ccccc23)cc1F
nt | 22 | -28 | nt | nt | COc1ccc(CN(C)C[C@H]2OCCCC[C@H](C)Oc3ccc(NS(=O)(=O)c4ccccc4)cc3C(=O)N([C@H](C)CO)C[C@H]2C)cc1
nt | -13 | -5 | nt | nt | C[C@@H]1CN([C@H](C)CO)C(=O)c2cccc(N(C)C)c2O[C@@H]1CN(C)C(=O)Nc1cccc2ccccc12
nt | 503* | 6 | nt | -2 | O=C(NC1CCOC1)c1ccc(OC2CCN(CCc3ccccc3)CC2)cc1 (stereo unspecified)
nt | 17 | 0 | nt | nt | Cc1ccc(-c2ccc([C@@H]3[C@@H](CO)N4CCCCN(S(=O)(=O)c5ccccc5C)C[C@@H]34)cc2)cc1
nt | -4 | -4 | nt | nt | CO[C@@H]1CN(C)C(=O)c2ccc(NC(C)=O)cc2OC[C@H](C)N(C(=O)CC2CC2)C[C@H]1C
nt | 12 | 2 | nt | nt | COc1ccc(-c2cnc3c(c2)C(=O)N([C@@H](C)CO)C[C@H](C)[C@H](CN(C)C(=O)NC2CCCC2)O3)cc1
nt | 5 | 8 | nt | nt | COc1ccccc1-c1cnc2c(c1)C(=O)N([C@H](C)CO)C[C@H](C)[C@@H](CN(C)C(=O)c1cccnc1)O2

Grouped by structure, the entries above containing an NH in an aromatic ring (4)
SR-BI uptake up | Yeast UUG start-1 | GSIS activator | SR-BI DiI inh | Yeast UUG start-2 | Compound
nt | 109* | nt | nt | 4 | COc1ccc(Cl)cc1NC(=O)CSc1nc2[nH]ncc2c(=O)[nH]1
-40 | 346* | 23 | 40 | -5 | COc1ccc(/C=N/NC(=O)c2ccc3nc[nH]c3c2)c(OC)c1OC
7 | -6 | 1 | -7 | nt | Cn1c(=O)[nH]c(=O)c2c1nc(Br)n2C/C=N/Nc1ccccc1
-18 | 136* | 8 | 18 | 0 | Cn1c(=O)[nH]c(=O)c2c1nc(Br)n2C/C=N/NC(=O)c1ccccc1
